Consider one substance from paper PMC10787067, “EBF2 Links KMT2D‐Mediated H3K4me1 to Suppress Pancreatic Cancer Progression via Upregulating KLLN” (Advanced Science, 2023).

The target in the assay is T1, His‐EBF2 (Homo sapiens, UniProt Q9HAK2).
T1 construct: His‐EBF2 plasmid was constructed by inserting the CDS of EBF2 into PET‐28a vector; His; made in house; host or cells: E. coli BL21 (DE3)
T1 sequence (Q9HAK2 1-575): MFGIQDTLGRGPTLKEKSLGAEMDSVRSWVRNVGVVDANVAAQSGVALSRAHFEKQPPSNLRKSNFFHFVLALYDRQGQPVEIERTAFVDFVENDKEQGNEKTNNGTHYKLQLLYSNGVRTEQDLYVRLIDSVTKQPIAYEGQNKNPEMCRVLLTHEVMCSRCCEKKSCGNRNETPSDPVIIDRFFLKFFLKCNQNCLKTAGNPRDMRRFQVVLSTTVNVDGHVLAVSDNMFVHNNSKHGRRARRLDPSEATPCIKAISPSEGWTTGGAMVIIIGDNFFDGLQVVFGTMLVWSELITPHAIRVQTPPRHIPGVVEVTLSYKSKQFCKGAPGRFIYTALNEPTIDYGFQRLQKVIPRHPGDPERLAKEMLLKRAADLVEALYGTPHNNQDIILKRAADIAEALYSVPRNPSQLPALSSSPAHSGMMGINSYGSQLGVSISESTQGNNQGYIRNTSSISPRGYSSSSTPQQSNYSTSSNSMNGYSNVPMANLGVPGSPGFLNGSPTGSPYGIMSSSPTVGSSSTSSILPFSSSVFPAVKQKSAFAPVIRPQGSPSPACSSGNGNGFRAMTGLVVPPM
Description: Peptide pull-down with purified His-EBF2 fusion protein. The class given is binding. To be noted: purified His-EBF2 expressed in E. coli; Figure 1C. The source says: The CDS region of EBF2 gene was inserted into pET‐28a plasmid to express recombinant His‐tagged EBF2 fusion protein (His‐EBF2) in E. coli (Figure 1C). […] To gain insight into this recognition, we analyzed the crystal structure of human EBF2 in complex with a H3K4me1‐containing histone H3 tail peptide. […] We further examined the expression of EBF2 in PDAC and adjacent tissues. […] Both EBF2 and H3K4me1 marks were co‐localized in the nuclei of PDAC or adjacent cells. Western blot analysis confirmed the reduction of EBF2 expression in PDAC tissues (Figure 1G), both in the nucleus and cytoplasm (Figure S1C, Supporting Information).
His‐EBF2 plasmid was constructed by inserting the CDS of EBF2 into PET‐28a vector, transformed into E. coli BL21 (DE3), and cultured with isopropyl‐β‐D‐thiogalactoside (IPTG; Beyotime) at 16 °C for 12 h, […]. BL21 cells were collected and sonicated in cold PBS buffer, and His‐fusion proteins were purified with High Affinity Nickel beads (Genscript, Nanjing, China). The purity of His‐fusion proteins was evaluated by SDS‐PAGE.

Regarding “H3K4me3: C-terminal biotin-tagged 19 amino acid N-terminal peptide of H3K4me3”, the “pull-down of purified His-EBF2 by peptide” value is reported as “not by H3K4me3”.
